Results published in ChEMBL document CHEMBL1944574, “Inhibition of monoamine oxidase by selected C6-substituted chromone derivatives” (Eur J Med Chem, 2012).
pIC50: −log10 of the molar value.

Sequences of proteins named here, by UniProt entry; tags and fusion partners are left off.
UniProt P27338, whole entry: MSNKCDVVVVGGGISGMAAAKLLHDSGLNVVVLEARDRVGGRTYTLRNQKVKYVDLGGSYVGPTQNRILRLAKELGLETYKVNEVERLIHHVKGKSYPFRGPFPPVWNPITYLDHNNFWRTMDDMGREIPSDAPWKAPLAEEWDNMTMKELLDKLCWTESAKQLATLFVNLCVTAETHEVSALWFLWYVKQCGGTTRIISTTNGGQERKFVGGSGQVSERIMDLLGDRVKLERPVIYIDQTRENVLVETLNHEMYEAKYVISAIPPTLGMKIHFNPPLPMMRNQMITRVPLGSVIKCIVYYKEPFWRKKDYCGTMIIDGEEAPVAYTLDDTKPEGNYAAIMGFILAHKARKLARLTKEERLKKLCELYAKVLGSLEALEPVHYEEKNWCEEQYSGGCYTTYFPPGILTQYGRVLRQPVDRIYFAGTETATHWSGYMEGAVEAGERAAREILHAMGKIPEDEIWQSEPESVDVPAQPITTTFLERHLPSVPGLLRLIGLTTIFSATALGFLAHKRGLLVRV

Target: Amine oxidase [flavin-containing] B (Homo sapiens, UniProt P27338)
Assay: Inhibition of recombinant human monoamine oxidase B expressed in insect microsomes using kynuramine as substrate after 20 mins by fluorescence spectrophotometry
Parameters: species or system Microsome
How it was run: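 Enzyme source: insect-cell microsomes with recombinant human MAO-A or MAO-B at 0.0075 mg protein/mL, with kynuramine as substrate. Buffer was potassium phosphate 100 mM, pH 7.4, made isotonic with 20.2 mM KCl. Six inhibitor concentrations (0–100 µM) spanned at least 3 log units. Incubation was 20 min at 37 °C, then stopped with 2 N NaOH. 4-Hydroxyquinoline was read by fluorescence ([…] nm as printed) against a 0.047–1.56 µM standard curve. IC50 came from sigmoidal fits of initial rate versus log inhibitor, in triplicate, mean ± SD.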

pIC50 | SMILES
8.70 | O=c1ccoc2ccc(OCc3ccc(Cl)cc3)cc12
8.08 | O=c1ccoc2ccc(OCc3ccc(F)cc3)cc12
